Data published in PubChem BioAssay AID652126 (The Scripps Research Institute Molecular Screening Center, 2013).
Only a part is listed here, and it is no random draw. Some tests of the compounds listed are not included; inactive here does not mean inactive elsewhere. Active and inactive are the calls of the source.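 How the source made its calls: active means activation above the mean over all tested compounds plus 3 SD (cut at about 0.9% in these data); inactive means the rest.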

Test system: Nuclear hormone receptor DAF-12 (Strongyloides stercoralis)
Assay: ssDAF-12 driven luciferase reporter activation – cell-based, luminescence, HEK293, GRIP1 co-expression, lit1-tk-luc, primary screen (AID 652126);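 further: 0% = DMSO-only wells and 100% = 3 µM delta7-dafachronic acid wells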
Conditions: HEK293 ssDAF-12/GRIP1 lit1-tk-luc reporter, at 6.8 µM, stronger effect = higher value, % of 3 µM dafachronic acid response

Compound	activation
C=C(C)C#CC(O)(C(=O)OC1CCN(C)CC1)c1ccccc1 (stereo unspecified)	inactive: -0.63%
COc1ccc(Br)c(C(=O)NCC2(N3CCCCC3)CCCCC2)c1	inactive: -2.11%
CC(C)Oc1ccc(C(=O)NCC2(N(C)C)CCCCC2)cc1	inactive: -1.12%
O=C(OCCN1CCCC1)C(O)(c1ccccc1)c1ccccc1	inactive: -0.9%
CN(C)c1cccc(C(=O)NCC2(N(C)C)CCCCC2)c1	inactive: -1.27%
O=C(OC1CN2CCC1CC2)C(CO)(c1ccccc1)c1ccccc1 (stereo unspecified)	inactive: -0.85%
COc1cccc(C(=O)NCC2(N3CCCCC3)CCCCC2)c1	inactive: -1.61%
COc1ccc(Cl)cc1C(=O)NCC1(N(C)C)CCCCC1	inactive: -0.81%
O=C(NCC1(N2CCCCC2)CCCCC1)c1cccc(Cl)c1	inactive: -0.77%
CN(C)C1(CNC(=O)c2ccc(Br)cc2)CCCCC1	inactive: -0.59%
COc1cc(C(=O)NCC2(N(C)C)CCCCC2)c([N+](=O)[O-])cc1OC	inactive: -0.49%
C=CCN1CCN(CCOC(=O)C(O)(c2ccccc2)c2ccccc2)CC1	inactive: -0.7%
O=C(NCC1(N2CCCCC2)CCCCC1)c1cc(F)c(F)cc1Cl	inactive: -1.19%
COc1ccc(C(=O)NCC2(N(C)C)CCCCC2)cc1	inactive: -0.59%
Cc1cc(C(=O)NCC2(N3CCCCC3)CCCCC2)ccc1[N+](=O)[O-]	inactive: -0.48%
CCN1CCCC(OC(=O)C2(O)c3ccccc3C=Cc3ccccc32)C1 (stereo unspecified)	inactive: -1.3%
O=C(NCC1(N2CCCCC2)CCCCC1)c1cccc(Br)c1	inactive: -0.33%
Cc1ccccc1C(=O)NCC1(N2CCCCC2)CCCCC1	inactive: 0.39%
CN(C)C1CCCC1OC(=O)C(O)(c1ccccc1)c1ccccc1 (stereo unspecified)	inactive: -0.57%
CN(C)c1ccc(C(=O)NCC2(N(C)C)CCCCC2)cc1	inactive: -1.47%
CCN(CC)CC(C)C(C)OC(=O)C(O)(c1ccccc1)c1ccccc1 (stereo unspecified)	inactive: -1.26%
COc1cc(SC)ccc1C(=O)NCC1(N(C)C)CCCCC1	inactive: -1.02%
CC(C)N1C(=O)CC2(CCN(CCOC(=O)C(O)(c3ccccc3)c3ccccc3)CC2)C1=O	inactive: -1.18%
Cc1ccc(C(=O)NCC2(N3CCCCC3)CCCCC2)cc1	inactive: -1.21%
O=C(NCC1(N2CCCCC2)CCCCC1)c1cc([N+](=O)[O-])ccc1Cl	inactive: -0.6%
CN1[C@@H]2CC[C@H]1CC(OC(=O)C(O)(c1ccccc1)c1ccccc1)C2 (stereo partly specified)	inactive: -0.83%
